The subject of one assay is HCT116 p53+/+ cells. As to conditions: read-out: EC50, cell viability; HCT116 (wild-type p53); 48 h; MTT; triplicate.
A further assay concerns p21 level. As to the kind of experiment: Western blot of LNCaP cell extracts. The format is cell-based, human. Conditions: read-out: EC50, upregulation of p21, MCo-PMI 0–100 μM, 48 h. For orientation: In western blotting, separated proteins are transferred to a membrane and probed.
The test system of the next assay is Hdm2 level. The assay is described as follows: Western blot of LNCaP cell extracts. The assay is classed as cell-based, human. As to conditions: read-out: EC50, upregulation of Hdm2, MCo-PMI 0–100 μM, 48 h.
In a further assay the test system is HdmX level. As to the kind of experiment: Western blot of LNCaP cell extracts. The assay is classed as cell-based, human. As to conditions: read-out: EC50, down regulation of HdmX, MCo-PMI 0–100 μM, 48 h.
For the next assay, the system named is p53 level. The format is cell-based, human. Conditions: read-out: EC50, upregulation of p53; LNCaP; MCo-PMI 0–100 μM, 48 h; western blot.

Molecules are shown by their SMILES.

Regarding `CC[C@H](C)[C@@H]1NC(=O)[C@@H]2CSSC[C@@H]3NC(=O)[C@H](C(C)C)NC(=O)CNC(=O)CNC(=O)[C@H](C)NC(=O)[C@H](CO)NC(=O)[C@H](CC(C)C)NC(=O)[C@H](CC(C)C)NC(=O)[C@H](CC(N)=O)NC(=O)[C@H](Cc4c[nH]c5ccccc45)NC(=O)[C@H](Cc4ccc(O)cc4)NC(=O)[C@H](CCC(=O)O)NC(=O)[C@H](C)NC(=O)[C@H](Cc4ccccc4)NC(=O)[C@H](CO)NC(=O)[C@H]([C@@H](C)O)NC(=O)[C@@H]4CCCN4C(=O)[C@H](C)NC(=O)[C@H](CCCCN)NC(=O)[C@H](CO)NC(=O)[C@H](C)NC(=O)CNC(=O)[C@H](CO)NC(=O)CNC(=O)[C@H](CO)NC(=O)CNC(=O)[C@@H]4CSSC[C@H](NC(=O)[C@H](CC(=O)O)NC(=O)[C@H](CO)NC(=O)[C@H](CC(=O)O)NC(=O)[C@H](CCCNC(=N)N)NC(=O)[C@H](CCCNC(=N)N)NC(=O)[C@H](CSSC[C@H](NC1=O)C(=O)N[C@@H](CCCNC(=N)N)C(=O)NCC(=O)N[C@@H](CC(N)=O)C(=O)NCC(=O)N[C@@H](Cc1ccc(O)cc1)C(=O)N4)NC(=O)[C@H](CCCNC(=N)N)NC(=O)[C@H](CCC(N)=O)NC(=O)[C@H](CC(C)C)NC(=O)[C@H]([C@@H](C)CC)NC(=O)[C@H](CCCCN)NC(=O)[C@@H]1CCCN1C3=O)C(=O)N1CCC[C@H]1C(=O)NCC(=O)N[C@@H](C)C(=O)N2` [MCo-PMI], the EC50 – broadly, the midpoint of the concentration-response curve – is roughly 2 µM in the assay on HCT116 p53+/+ cells; roughly 30 µM in the assay on p21 level; roughly 15 µM with Hdm2 level; roughly 30 µM in the assay with HdmX level; roughly 20 µM in the assay with p53 level.

For the origin of these results see paper PMC3767463 (Journal of the American Chemical Society, 2013).
